{"source": "patent US11925662B2", "about": "“Compositions and methods of enhancing anti-tumor response using hybrid neutrophils” (THE TRUSTEES OF THE UNIVERSITY OF PENNSYLVANIA, priority 2015, dated 2024)", "key": {"A549 lung cancer cells": {"test_system": "A549 lung cancer cells", "details": "literature (Kurai et al., 2007); cited from earlier work"}, "A549 flank tumors": {"test_system": "A549 flank tumors", "experiment": "Planned study of ADCC in vivo (Table 1 groups)", "parameters": "species or system NSG mice", "details": "IV cetuximab, IT saline (Group 2) vs control group", "method": "NSG mice with established A549 flank tumors (100-200 mm^3) can be studied. The ability of BM-derived hybrid neutrophils to mediate ADCC in vivo using the cetuximab can be characterized. Briefly, cetuximab is injected IV into tumor-bearing mice. Next, 10^7 BM-derived hybrid or canonical neutrophils are injected intratumroally (IT). All IV injections are performed 2 hours before the IT injections to allow antibody binding to tumors. Tumor size over 5 days is measured. […] Ten (10) mice per group (enough to enable detection of 25% differences in tumor size-based on years of previous similar studies and consultation with a biostatistician) are studied. Compared to a control group (Group 1), little effect of antibody alone is expected (Group 2). No effect from canonical BMN (groups 3 and 4) or the hybrid BMN without cetuximab is expected (Group 5)."}}}
{"substance": "cetuximab: anti-EGFR monoclonal antibody", "values": [{"measurement": "ADCC activity", "setting": "A549 lung cancer cells", "value": "capable of activating ADCC activity"}, {"measurement": "expected effect on tumor size", "setting": "A549 flank tumors", "value": "little effect"}]}
